# Measurements published in PMC11470414, “In vitro assessment of Dracocephalum lindbergii for growth inhibition, apoptosis induction, and cytokine modulation against Leishmaniamajor” (Heliyon, 2024).
# Test system: macrophage cell line (THP-1)
# Assay: Toxicity on macrophages (MTT, CC50)
# Assay type: cell-based
# Experimental: The promastigote form of L. major (MRHO/IR/75/ER), the national standard isolate, was obtained from the Pasteur Institute of Iran and cultured at 25 °C in RPMI-1640 medium containing 10 % heat-inactivated FBS and 1 % penicillin/streptomycin. The THP-1 macrophage cell line, provided by the Kerman Leishmaniasis Research Center, was grown in Dulbecco's Modified Eagle Medium (DMEM) supplemented with 10 % FBS and 0.5 % antibiotics (Sigma, Poole, UK), and incubated at 37 °C with 5 % CO₂ [21].
# To assess the impact of the D. lindbergii fraction on L. major promastigotes, amastigotes, and macrophages, cell viability was determined using the 3-(4,5-dimethylthiazol-2-yl)-2,5-diphenyl tetrazolium bromide (MTT). L. major in the logarithmic growth phase (1 × 10⁶) was plated in a 96-well microplate using RPMI-1640 medium supplemented with 10 % FBS and treated with different concentrations of the samples. The plates were then incubated. Subsequently, 10 μL of MTT (Sigma Chemical Co., St. Louis, MO) at a concentration of 5 mg/mL was added to each well. After incubation, DMSO was added to stop the reactions, and the optical density (OD) absorbance of the samples was measured at 570 nm using an ELISA plate reader (BioTek Company, USA). The results were analyzed by calculating the inhibition percentage through linear regression.
substance,measurement,setting,value
meglumine antimoniate [MAT],Macrophage (24 h) CC50,24 h,780.3 ± 38.2
same,Macrophage (48h) CC50,48 h,758.3 ± 25.1
same,Macrophage (72h) CC50,72 h,744.9 ± 25.0
